Only a part is listed here, and it is no random draw. Some of these compounds have results that are not shown, active ones among them. The source made the active and inactive calls.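 The calls were made as follows: active = inhibition above a per-campaign cutoff: mean of compounds within control limits plus 3 SD (cut at about 15% in these data); inactive = the rest.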
These compounds were tested against Fibrinogen beta chain (Homo sapiens) (UniProt P02675) (assay: small molecules displacing Tn6 from DD(E) complex – biochemical, fluorescence polarization, human fibrin, Tn6 probe, primary screen (AID 720509;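 also: 0% = median of all compound wells on the plate and 100% = blocking peptide control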)). Settings: Fibrin DD(E) TRITC-Tn6 fluorescence polarization displacement; at 8.3 µM; active compounds read high.

Amino acid sequences for entries named in this document (tags omitted).
UniProt P02675, whole entry, looked up: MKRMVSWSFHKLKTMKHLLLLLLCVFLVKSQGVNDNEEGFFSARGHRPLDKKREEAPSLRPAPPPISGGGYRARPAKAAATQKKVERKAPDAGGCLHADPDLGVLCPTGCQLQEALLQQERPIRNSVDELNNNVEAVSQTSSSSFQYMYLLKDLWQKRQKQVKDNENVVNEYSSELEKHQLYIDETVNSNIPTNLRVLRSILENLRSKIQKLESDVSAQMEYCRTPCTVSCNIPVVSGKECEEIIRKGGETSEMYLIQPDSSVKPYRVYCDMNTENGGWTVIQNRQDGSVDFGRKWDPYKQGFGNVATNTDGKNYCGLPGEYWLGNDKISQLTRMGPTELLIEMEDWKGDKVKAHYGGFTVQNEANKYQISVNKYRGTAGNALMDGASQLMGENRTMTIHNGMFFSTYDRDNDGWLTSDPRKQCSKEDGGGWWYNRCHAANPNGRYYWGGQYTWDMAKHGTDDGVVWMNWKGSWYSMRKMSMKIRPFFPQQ

Row | SMILES | inhibition
1 | O=C(OC1CN2CCC1CC2)C(CO)(c1ccccc1)c1ccccc1 (stereo unspecified) | inactive: 11.8%
2 | CN(C)c1cccc(C(=O)NCC2(N(C)C)CCCCC2)c1 | inactive: 11.2%
3 | CC(C)Oc1ccc(C(=O)NCC2(N(C)C)CCCCC2)cc1 | inactive: 6.47%
4 | O=C(OCCN1CCCC1)C(O)(c1ccccc1)c1ccccc1 | inactive: 0.78%
5 | COc1ccc(Br)c(C(=O)NCC2(N3CCCCC3)CCCCC2)c1 | inactive: 2.68%
6 | C=C(C)C#CC(O)(C(=O)OC1CCN(C)CC1)c1ccccc1 (stereo unspecified) | inactive: -1.48%
7 | COc1cc(C(=O)NCC2(N(C)C)CCCCC2)c([N+](=O)[O-])cc1OC | inactive: -3.87%
8 | CN(C)C1(CNC(=O)c2ccc(Br)cc2)CCCCC1 | inactive: -2.12%
9 | O=C(NCC1(N2CCCCC2)CCCCC1)c1cccc(Cl)c1 | inactive: -4.13%
10 | COc1cccc(C(=O)NCC2(N3CCCCC3)CCCCC2)c1 | inactive: -1.19%
11 | COc1ccc(Cl)cc1C(=O)NCC1(N(C)C)CCCCC1 | inactive: 2.51%
12 | Cc1ccccc1C(=O)NCC1(N2CCCCC2)CCCCC1 | inactive: -2.09%
13 | CN(C)C1CCCC1OC(=O)C(O)(c1ccccc1)c1ccccc1 (stereo unspecified) | inactive: 0%
14 | CN(C)c1ccc(C(=O)NCC2(N(C)C)CCCCC2)cc1 | inactive: -1.86%
15 | Cc1cc(C(=O)NCC2(N3CCCCC3)CCCCC2)ccc1[N+](=O)[O-] | inactive: -4.31%
16 | CCN1CCCC(OC(=O)C2(O)c3ccccc3C=Cc3ccccc32)C1 (stereo unspecified) | inactive: -1.48%
17 | O=C(NCC1(N2CCCCC2)CCCCC1)c1cccc(Br)c1 | inactive: 12.7%
18 | COc1ccc(C(=O)NCC2(N(C)C)CCCCC2)cc1 | inactive: 8.6%
19 | C=CCN1CCN(CCOC(=O)C(O)(c2ccccc2)c2ccccc2)CC1 | inactive: 6.24%
20 | O=C(NCC1(N2CCCCC2)CCCCC1)c1cc(F)c(F)cc1Cl | inactive: -0.18%
21 | CN1[C@@H]2CC[C@H]1CC(OC(=O)C(O)(c1ccccc1)c1ccccc1)C2 (stereo partly specified) | inactive: -2.04%
22 | O=C(NCC1(N2CCCCC2)CCCCC1)c1cc([N+](=O)[O-])ccc1Cl | inactive: -2.44%
23 | Cc1ccc(C(=O)NCC2(N3CCCCC3)CCCCC2)cc1 | inactive: 3.7%
24 | CC(C)N1C(=O)CC2(CCN(CCOC(=O)C(O)(c3ccccc3)c3ccccc3)CC2)C1=O | inactive: 8.71%
25 | CCN(CC)CC(C)C(C)OC(=O)C(O)(c1ccccc1)c1ccccc1 (stereo unspecified) | inactive: -0.02%
26 | COc1cc(SC)ccc1C(=O)NCC1(N(C)C)CCCCC1 | inactive: 0.9%

Reference: PubChem BioAssay AID720509 (The Scripps Research Institute Molecular Screening Center, 2013)
